# Experimental data from PubChem BioAssay AID593 (National Center for Advancing Translational Sciences (NCATS), 2007).
# The list shows a part of the results, in another mix than the full data. Inconclusive results are not listed. The source made the active and inactive calls. Cut-off read from the data, not from the text of the source: active = max fluorescein-equivalent concentration above about 10 nM; inconclusive = between about 1.1 nM and that limit; inactive = weaker than that.
# Assay: qHTS Assay for Spectroscopic Profiling in Fluorescein Spectral Region
# Details: Compound autofluorescence, 480/540 nm, fluorescein-equivalent
# Description: NIH Molecular Libraries Screening Centers Network [MLSCN]
# NIH Chemical Genomics Center [NCGC]
# Occasionally, the artifactual effect may originate from the compound's own spectral or other biophysical properties which generally tend to track its assay concentration. Pre-screening/profiling the library with respect to the compounds' spectral properties should help one exclude false positives early on. While the most informative fluorescent profiling data set is obtained by performing a full excitation and emission scan of each well by using a monochromator-based plate reader, such an approach is practical only on a very limited scale as scanning each well requires long time. An alternative approach, applied here, is to perform plate reader scans using selected excitation and emission wavelength pairs to generate a multidimensional relational database that correlates compound concentration and the respective relative fluorescence intensity at a given wavelength set. A standard curve of fluorescein present on each plate as six-point concentration series, was used to compute a normalized fluorescence response, termed dye-equivalent concentration, for each compound at each concentration.
# NCGC Assay Protocol Summary:
# 100 mM Tris buffer, pH 8.0
# The wells in columns 1 through 4 of a Kalypsys polypropylene 1536-well compound plate were filled with standard solutions of fluorophore corresponding to the spectral region of interest. Solutions of Fluorescein were placed in the following wells: Q1, R1: 3 mM, Q2, R2: 300 uM, Q3, R3: 30 uM, Q4, R4: zero (DMSO), S1, T1: 3 uM, S2, T2: 900 nM, S3, T3: 300 nM, S4, T4: zero (DMSO).
# Six uL of buffer were dispensed to 1536-well Greiner black plates. Compounds and dye standards (23 nL) were transferred via Kalypsys PinTool. The plates were incubated for 15 min at room temperature, and then read on ViewLux (Perkin-Elmer) High-throughput CCD imager using 480 nm and 540 nm excitation and emission filter set.
# Keywords: NIH Roadmap, MLSCN, MLI, MLSMR, qHTS, NCGC, Fluorescein, Fluorescent Profiling.
row,Compound,outcome
1,CCOc1ncccc1C(=O)NCC1(N2CCOCC2)CCCCC1,inactive
2,O=C(O)C1(Nc2ccccc2)CCN(Cc2ccccc2)CC1,inactive
3,N/C(=N\O)c1c(N)no[n+]1[O-],inactive
4,N#CC1(Nc2ccccc2)CCN(CCc2ccccc2)CC1,inactive
5,NC1CCCCC1.NP(=O)(O)N(CCCl)CCCl,inactive
6,O=C(OC1CN2CCC1CC2)C1c2ccccc2Oc2ccccc21 (stereo unspecified),inactive
